# scFv variants of Ab-14 (light chain) against a SARS-CoV-2 spike peptide

Target: peptide PDVDLGDISGINAS, taken from heptad repeat 2 (HR2) of SARS-CoV-2 spike.

Parent scFv Ab-14: VH joined to VL by a 15-residue (Gly4Ser)3 linker. Changes lie in the light chain CDRs alone.
VH: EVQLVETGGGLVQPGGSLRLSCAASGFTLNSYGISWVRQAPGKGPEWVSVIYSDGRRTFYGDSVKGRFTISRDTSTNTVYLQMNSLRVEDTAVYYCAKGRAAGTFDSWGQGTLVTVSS
VL: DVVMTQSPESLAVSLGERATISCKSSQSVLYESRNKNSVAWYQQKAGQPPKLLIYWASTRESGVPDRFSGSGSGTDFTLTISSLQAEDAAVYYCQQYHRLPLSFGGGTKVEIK

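The starting antibody came from a phage panning campaign against this peptide. The variants were designed computationally from a first round of random CDR variants and then made and measured. Their group label is 14L_GP_Gibbs (GP: Gaussian process model; Gibbs: Gibbs sampling; a sequence that several methods proposed may carry one label only). AlphaSeq pools MATa yeast showing the antibodies with MATalpha yeast showing the peptide. Mating (16 h, 30 °C) was followed by selection of diploids and sequencing of their barcodes. Read counts were normalised to the haploid input and turned into Kd by a linear fit to BCL2-family pairs of known affinity, for each replicate. Each pool was mated in six replicate cultures.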

Variants are written as CDR1, CDR2 and CDR3 of the light chain (limits as in the source). Parent: KSSQSVLYESRNKNSVA, WASTRES, QQYHRLPLS.
Numbers give log10(Kd / nM), so 0 is 1 nM and 3 is 1 µM. Smaller is tighter.
Where no diploid with the target was found in that replicate, the entry reads "ND": below detection, most likely a poor binder, though not proof of it.
A sequence measured in both rounds can read differently, since the two assays cover different ranges.

CDR-L1 | CDR-L2 | CDR-L3 | log10 Kd (nM) by replicate | control signals
KVSIEVLMGDRNKNSVA | KASTRES | QQYHRLPLS | 0.11 0.40 0.11 0.09 -0.03 0.40 | 1/18 (2.32)
KISQAYLYESRNKNSVA | QANHREQ | QQYHRLPLS | 0.39 0.80 0.65 0.44 0.15 0.31 | 0/18
KSAASELGESRNKNSVA | SASTRES | QQYHRLPLS | 0.06 -0.13 0.11 -0.15 -0.24 -0.04 | 3/18 (3.61)
KLEQSTLYESRNANSVA | NASTRES | QQYKRLPLS | -0.10 -0.32 -0.29 -0.48 -0.26 -0.25 | 1/18 (2.22)
KYSTSELELSRNKNSVA | WASTREL | QQYHRLPLS | 2.23 ND 1.09 1.31 1.36 1.09 | 1/18 (2.20)
KVSQSVLQEDRNSNSVA | NASTREL | QQYHRLPLS | 0.24 0.23 0.13 -0.05 0.21 0.26 | 0/18
KLSQGQLYESRNKNQVA | SASTREM | QQYHRLPLS | 0.63 0.37 0.38 0.16 0.30 0.49 | 0/18
KVEQGWLDESRNKNSVA | WASTRES | QQYHRLPLS | 0.45 0.36 0.37 0.35 0.39 0.51 | 2/18 (3.35)
KLMTSDLYESRMKNAVA | DASTRMS | QQYHRLPLS | 0.11 -0.10 -0.16 -0.17 -0.33 0.06 | 0/18
KLSMGVDYGDRNKNSVA | HASTRES | QQYHRLPLS | 0.00 0.12 -0.11 -0.23 -0.17 -0.03 | 0/18
KIQQSYLYEDRAKNSVA | NASTRLW | QQYHRLPLS | ND 0.89 1.11 1.47 0.98 1.03 | 0/18
KLSFSVLYGKRNKNSVA | QASQRMS | QQYHRLPLS | 1.17 0.56 1.05 0.74 0.81 0.87 | 1/18 (3.20)
KWSISVLQGDRNKNSVA | NASCREQ | QQYHRLPLS | 0.85 0.82 0.95 0.90 1.05 0.81 | 1/18 (2.69)
WLSTSVMLESRNVNSVA | SASTREE | QQYHRLPLS | -0.29 0.02 -0.20 -0.53 -0.25 0.16 | 0/18
KLQQDVLYESRNKNSVA | QASTRMS | QAYHRLPLS | 0.28 0.04 0.07 -0.24 0.12 0.15 | 2/18 (3.42)
KLSQSQEYLSRNSNAVA | NASQRLQ | QQYHRLPLS | 0.46 0.71 0.41 0.22 0.67 0.56 | 0/18
KCDQWVFYGDRWKNSVA | NASTREQ | QQYHRLPLS | 0.97 1.08 1.54 1.27 1.74 1.61 | 2/18 (2.78)
KFSQMDLYESRNKNQVA | SASQRSS | QQYHRLPLS | 0.92 0.67 0.67 0.69 0.54 0.63 | 2/18 (3.16)
KLEQGFLYENRNKNSVA | SASQRES | QQYHRLPLS | -0.22 -0.36 -0.28 -0.56 -0.42 -0.26 | 1/18 (3.32)
KSSGSVLGEDWNSNSVA | NASQRES | QQYHRLPLS | 0.47 0.61 0.68 0.40 0.24 0.48 | 0/18
KFSQSDLYEDRAKNSVA | NASTRCW | QQYHRLPLS | 0.84 0.79 0.69 0.87 0.61 0.32 | 1/18 (2.79)
KSSPSELYEDRAFNSVA | HASTRES | QQYHRLPLS | 0.70 0.47 0.37 0.61 0.47 0.71 | 1/18 (3.58)
KISQSWLMEPRNSNSVA | NASTRQM | QQYHRLPLS | 0.24 0.12 0.06 0.05 -0.16 0.26 | 1/18 (3.44)
KMQQLVWYEQRNKNSVA | DGSTREQ | QQYHRLPLS | 0.18 -0.11 0.02 -0.15 0.00 0.17 | 1/18 (2.57)
KLSGSVGYESRNPNSVA | NASTREL | QQYHRLPLS | 0.30 0.11 0.24 0.54 0.45 0.32 | 0/18
KLEWSDLLESRNKQSVA | QASTRMS | QQYHRLPLS | 0.47 0.38 0.30 0.18 0.34 0.60 | 2/18 (3.11)
ILYQSQLYESRNKNSVA | QASQREM | QQYHRLPLS | 0.26 0.21 0.06 0.09 -0.09 0.42 | 2/18 (2.85)
KLHQSELYESRHANNVA | NASQRES | QQYHRLPLS | 0.03 0.18 0.03 -0.18 0.09 0.28 | 0/18
KSMQSEPYEDRNKNSVA | EASTRCS | QQYHRLPLS | 0.46 0.51 0.24 0.24 0.34 0.53 | 0/18
KLSQSVVYESRNKNSVA | NASTRLS | QQYHRLPLS | -0.03 -0.11 -0.13 -0.20 -0.22 0.08 | 3/18 (3.69)
KVQPSELGESRHDNSVA | NASKRES | QQYHRLPLS | 0.61 0.33 0.72 0.00 0.56 0.52 | 0/18
KVMQLQDYESRNKNSVA | HASQREQ | QQYHRLPLS | 0.44 0.24 0.22 0.23 -0.08 0.30 | 1/18 (1.91)
HLEQSEEYESRMKNSVA | NASTRLS | QQYHRLPLS | 0.36 0.10 0.06 -0.02 -0.08 0.20 | 0/18
KLSQSNKYESRMKNSVA | NASQREC | QQYHRLPLS | 0.65 0.75 0.34 0.47 0.29 1.05 | 2/18 (3.66)
KLMQEDEYESRNPNSVA | QASERES | QQYHRLPLS | -0.40 -0.49 -0.56 -0.81 -0.63 -0.37 | 0/18
KSSGSQLYEDRNKNSVA | SATQRES | QQYHRLPLS | 0.23 0.34 0.02 -0.09 0.02 0.19 | 1/18 (2.91)
KLQQSVDYESRNKNAVA | EASTREQ | QQYHQLPLS | 0.45 0.21 0.57 0.25 0.27 0.30 | 0/18
KFMTSMPYESRNKNSVA | EASTREL | QQYHRLPLS | -0.24 0.10 0.11 -0.01 0.10 0.36 | 1/18 (2.11)
KLSQQDEYESRNKNSVA | HASCRWQ | QQYHRLPLS | 1.09 0.71 0.88 0.96 0.89 1.07 | 1/18 (2.25)

In the paper, a design with two or fewer of six values counts as a poor binder.
As a blank, each scFv also met three strains without target: over all light chain designs, 4% of these pairings were detected, typically at 2.64 and seldom below 1.59. Also given: how often the same scFv was detected with the empty control strains, with their mean in brackets.
Of ten entries with the parent sequence, four were seen in most replicates (averages 0.34 to 2.37), three in one and three in none, so single entries are noisy.

Source: Li et al. 2023 (doi:10.1038/s41467-023-39022-2), MIT Lincoln Laboratory and A-Alpha Bio; data file from the FLAb repository.